Assay results as given in PMC11405833, “Targeted sulfur(VI) fluoride exchange-mediated covalent modification of a tyrosine residue in the catalytic pocket of tyrosyl-DNA phosphodiesterase 1” (Communications Chemistry, 2024).

Amino acid sequences for entries named in this document (tags omitted). Residues count along the entry.
UniProt Q9NUW8, whole entry: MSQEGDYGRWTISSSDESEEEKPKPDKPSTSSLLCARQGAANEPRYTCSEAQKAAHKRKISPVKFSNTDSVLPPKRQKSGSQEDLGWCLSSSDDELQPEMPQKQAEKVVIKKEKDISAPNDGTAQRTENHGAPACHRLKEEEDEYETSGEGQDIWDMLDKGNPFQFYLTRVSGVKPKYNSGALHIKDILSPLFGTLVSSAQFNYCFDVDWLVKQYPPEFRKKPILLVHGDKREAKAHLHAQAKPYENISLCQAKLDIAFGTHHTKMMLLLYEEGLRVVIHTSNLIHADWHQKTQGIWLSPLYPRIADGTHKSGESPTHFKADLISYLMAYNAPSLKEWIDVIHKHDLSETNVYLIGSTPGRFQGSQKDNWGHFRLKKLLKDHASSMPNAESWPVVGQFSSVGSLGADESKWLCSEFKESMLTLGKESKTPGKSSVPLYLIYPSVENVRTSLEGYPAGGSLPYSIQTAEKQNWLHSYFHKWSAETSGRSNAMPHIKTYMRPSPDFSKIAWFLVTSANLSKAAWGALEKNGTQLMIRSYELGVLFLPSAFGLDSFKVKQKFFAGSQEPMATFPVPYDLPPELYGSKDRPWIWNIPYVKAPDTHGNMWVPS
UniProt Q9NUW8, 148-608: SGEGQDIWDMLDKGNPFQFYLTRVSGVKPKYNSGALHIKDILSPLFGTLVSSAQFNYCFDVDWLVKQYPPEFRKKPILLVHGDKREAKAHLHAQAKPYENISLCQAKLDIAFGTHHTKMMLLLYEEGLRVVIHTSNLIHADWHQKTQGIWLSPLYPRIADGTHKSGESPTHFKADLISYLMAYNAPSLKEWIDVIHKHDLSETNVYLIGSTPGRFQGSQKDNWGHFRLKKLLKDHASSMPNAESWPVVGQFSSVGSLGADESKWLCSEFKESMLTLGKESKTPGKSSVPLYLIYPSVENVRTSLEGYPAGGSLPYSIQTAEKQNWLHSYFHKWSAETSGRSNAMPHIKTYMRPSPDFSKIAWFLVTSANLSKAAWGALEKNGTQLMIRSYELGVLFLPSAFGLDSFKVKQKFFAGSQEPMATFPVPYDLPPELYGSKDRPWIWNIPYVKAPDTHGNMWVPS
UniProt Q9NUW8, whole entry Y204F: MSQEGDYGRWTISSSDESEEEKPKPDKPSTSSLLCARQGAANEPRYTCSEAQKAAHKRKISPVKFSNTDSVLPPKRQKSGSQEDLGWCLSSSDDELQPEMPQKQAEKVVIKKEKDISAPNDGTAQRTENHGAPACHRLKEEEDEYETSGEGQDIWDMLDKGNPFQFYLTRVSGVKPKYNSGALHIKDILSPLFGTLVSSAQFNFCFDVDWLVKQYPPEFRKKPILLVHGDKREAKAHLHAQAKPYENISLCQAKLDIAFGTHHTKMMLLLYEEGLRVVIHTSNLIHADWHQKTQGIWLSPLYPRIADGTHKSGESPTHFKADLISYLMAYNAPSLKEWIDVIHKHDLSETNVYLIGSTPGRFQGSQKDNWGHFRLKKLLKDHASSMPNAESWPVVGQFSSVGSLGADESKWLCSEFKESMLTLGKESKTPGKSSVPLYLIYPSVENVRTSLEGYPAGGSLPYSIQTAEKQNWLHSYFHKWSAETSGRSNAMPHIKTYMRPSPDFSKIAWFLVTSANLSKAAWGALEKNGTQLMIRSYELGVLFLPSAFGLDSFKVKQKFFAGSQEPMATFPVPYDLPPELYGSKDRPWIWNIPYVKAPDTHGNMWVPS

Tests used:
[1] = biological target: recombinant full-length TDP1 (Homo sapiens, UniProt Q9NUW8); experiment: gel-based TDP1 fluorescence assay in vitro (wild-type TDP1); settings: for fold increase in inhibitory potency compared with quinolone 1a: 5 min pre-incubation, vs 1a IC50 7.2 mM
[2] = biological target: catalytic domain of TDP1 (residues S148-S608) (Homo sapiens, UniProt Q9NUW8); settings: TDP1 crystals soaked with compound for 5 days
[3] = biological target: TDP1(148-608) (Homo sapiens, UniProt Q9NUW8); experiment: intact mass LC-MS analysis of covalent modification; type: binding; settings: 50 μM compound, overnight 25 °C, 1:65 enzyme/compound
Experimental: The samples were diluted with water to 100 μL and analyzed by liquid chromatography coupled online with mass spectrometry (LC-MS)[67]. Separation was performed on a Vanquish Flex chromatographic system (Thermo) using a MabPac reversed-phase column (4 μm, 1500 Å, 3 ×50 mm, Thermo) maintained at 50 °C. The labeled proteins were resolved at 0.5 mL/min over a 15 min gradient of buffer B (47.5% acetonitrile, 47.5% isopropanol, 5% water, 0.2% formic acid (FA)) from 2 to 100% followed by re-equilibration at 2% buffer B (total run time 20 min) against buffer A (5% acetonitrile, 0.2% FA in water). The eluates from the column were introduced to an Exactive Plus EMR mass spectrometer (Thermo) through a heated electrospray ionization (HESI) source. Intact mass spectra were acquired over 500-2000 m/z window at 35,000 FT resolution (at 200 m/z), averaging 10 microscans, with an AGC target of 3 ×10^6, max injection time of 200 ms, 80% S-lens RF level, 20 V source-induced dissociation, and capillary temperature set at 275 °C. The resulting spectra were manually averaged followed by deconvolution using the ReSpect algorithm in BioPharma Finder 2.0 (Thermo). The default deconvolution parameters used were 20 ppm deconvolution mass tolerance, 6-10 minimum adjacent charges (low and high model mass), 0% relative abundance threshold, 2:2 left/right peak shape, peak detection minimum significance measure of 1 standard deviation, 95% peak detection quality measure, peak model width factor of 1, 0.01 intensity threshold scale, and the noise compensation set to true.

[4] = biological target: T1, TDP1^Y204F (Homo sapiens, UniProt Q9NUW8, Y204F); experiment: gel-based TDP1 fluorescence assay in vitro (mutant TDP1 Y204F); type: biochemical; settings: 5 min pre-incubation
T1 construct: was incubated for 15 min. with recombinant full-length TDP1 or TDP1^Y204F (40 pM)

Row | Compound | fold increase in inhibitory potency compared with quinolone 1a ([1]; WT TDP1) | covalent bond to Y204 in crystal structure [2] | mass shift of single covalent modification of TDP1(148-608) (loss of fluorine) [3] | fold reduced inhibitory potency with mutant TDP1^Y204F vs WT [4] | fold increase in inhibitory potency relative to parent compound 3c [1] | fold enhancement of IC50 by extending pre-incubation time from 5 min to 3 h ([1]; WT TDP1)
1 | O=C(O)c1c[nH]c2c(NCCS(=O)(=O)F)cccc2c1=O [Compound 2f] | 13 fold | does not form a covalent bond to Y204 | – | – | – | –
2 | O=C(O)c1c[nH]c2c(-c3ccccc3NCCS(=O)(=O)F)cccc2c1=O [Compound 3b] | – | covalent attachment | +370.08 Da | – | – | –
3 | O=C(O)c1c[nH]c2c(-c3ccc(OS(=O)(=O)F)cc3)cccc2c1=O [Compound 3e] | – | has not formed any covalent bond | – | – | – | –
4 | O=C(O)c1c[nH]c2c(-c3ccccc3OS(=O)(=O)F)cccc2c1=O [Compound 3c] | – | formation of the covalent bond | +343.65 Da | – | – | –
5 | O=C(O)c1c[nH]c2c(S(=O)(=O)F)cccc2c1=O [Compound 2e] | – | covalent binding | +251.32 Da | – | – | –
6 | O=C(NCc1ccccc1)c1ccc(-c2cccc3c(=O)c(C(=O)O)c[nH]c23)c(OS(=O)(=O)F)c1 [Compound 3f, 8-(4-(benzylcarbamoyl)-2-((fluorosulfonyl)oxy)phenyl)-4-oxo-1,4-dihydroquinoline-3-carboxylic acid] | 38 fold | covalent bond with the side chain of Y204 | +476.57 Da | 32 fold | 5 to 10 fold | 1.9 fold
